Laboratory results published in patent US11400136B2, “Methods and compositions for treating a microbial infection” (priority 2017, dated 2022).
Entries after “also recorded” stand apart in the source; their conditions may differ.

Columns and labels:
lung cells = test: Cytokine production by whole lung cell cultures infected with S. aureus; assay type: cell-based, mouse; conditions: CGRP 100 nM; S. aureus MOI 2
S. aureus = test: Neutrophil intracellular killing of S. aureus; assay type: cell-based, mouse; conditions: CGRP 0-1000 nM; 2 h
S. pyogenes M1 [1] = test: Lancefield assay (human whole blood killing); assay type: cell-based; conditions: CGRP 10 or 100 nM; 3 h
S. pyogenes M1 [2] = assay type: cell-based, mouse; conditions: CGRP added, no neurons
myeloperoxidase (MPO) = test: Neutrophil myeloperoxidase activity (MPO) assay; assay type: cell-based, mouse; conditions: in presence of S. pyogenes; 30 min; dose-dependent
Method: Neutrophil myeloperoxidase activity (MPO) assay. Mouse neutrophils were isolated from mouse bone marrow using EasySep mouse neutrophil enrichment kit and EasySep Magnet according to manufacturer's instructions (StemCell). These neutrophils (5×10^5 cells per well) were then treated with CGRP (0.01-1 GenScript) or vehicle (PBS), immediately prior to mixture with S. pyogenes (5×10^3 cfu) M1 wt strain or vehicle (PBS) in 200 μL of neurobasal-A medium containing 10% of fresh mouse serum. Serum was obtained after coagulation of whole mouse blood. Plates were incubated for 30 min at 37° C. with gently shaking (150 rpm), and supernatant collected for MPO activity measurements. Supernatants (50 μL) were added to 200 μL, of 50 mM phosphate buffer solution (pH 6.0) containing 0.167 mg/mL of peroxidase substrate o-dianisidine dihydrochloride (Santa Cruz Biotech) and 0.05% hydrogen peroxide (Santa Cruz Biotech) and incubated for 30 min at room temperature. MPO activity was determined spectrophotometrically by measuring the increase in absorbance at 450 nm.

Row | Substance | CXCL1 production (lung cells) | IL-6 production (lung cells) | TNF-α production (lung cells) | neutrophil killing of S. aureus (S. aureus) | killing of S. pyogenes by human whole blood (multiplication factor) (S. pyogenes M1 [1]) | mouse neutrophil killing of S. pyogenes (multiplication factor) (S. pyogenes M1 [2]) | MPO activity in neutrophil supernatants (myeloperoxidase (MPO))
1 | CGRP (ACDTATCVTHRLAGLLSRSGGVVKNNFVPTNVGSKAF; Calcitonin gene-related peptide 1; UniProt P06881 83-119, looked up) | significantly reduces expression of both cytokines; also recorded: inhibited; also recorded: suppressed CXCL1 | but not IL-6 | significantly reduces expression of both cytokines; also recorded: inhibited | inhibition of killing; also recorded: decreases S. aureus clearance; also recorded: inhibited intracellular killing of S. aureus | inhibits killing of the bacteria; also recorded: significantly enhanced the growth of bacteria | inhibits killing of bacteria; also recorded: significantly enhanced the growth of bacteria | decreased; also recorded: inhibited the activity of the bactericidal enzyme myeloperoxidase (MPO)
2 | human CGRP (ACDTATCVTHRLAGLLSRSGGVVKNNFVPTNVGSKAF; Calcitonin gene-related peptide 1; UniProt P06881 83-119, looked up) |  |  |  |  | inhibited the killing of S. pyogenes by human whole blood |  | 
